This is an account of results in the pKa sets of Baltruschat and Czodrowski (2020).

As usually defined, the pKa is the pH at which an ionisable group is half protonated. Read a low pKa as a stronger acid or weaker base.

Molecule `C1CN1` displayed a pKa of 8.

In the case of `NCCF`, the pKa amounted to 9.
